From ChEMBL document CHEMBL1125523, “Novel indolodioxanes with antihypertensive effects: potent ligands for the 5-HT1A receptor” (J Med Chem, 1992) come the findings set out here.

Chains of the proteins cited; added tags and fusions are not shown. Lines headed by an entry give the natural chain unless they say otherwise; changes in a name come on top.
UniProt P33533, whole entry, looked up: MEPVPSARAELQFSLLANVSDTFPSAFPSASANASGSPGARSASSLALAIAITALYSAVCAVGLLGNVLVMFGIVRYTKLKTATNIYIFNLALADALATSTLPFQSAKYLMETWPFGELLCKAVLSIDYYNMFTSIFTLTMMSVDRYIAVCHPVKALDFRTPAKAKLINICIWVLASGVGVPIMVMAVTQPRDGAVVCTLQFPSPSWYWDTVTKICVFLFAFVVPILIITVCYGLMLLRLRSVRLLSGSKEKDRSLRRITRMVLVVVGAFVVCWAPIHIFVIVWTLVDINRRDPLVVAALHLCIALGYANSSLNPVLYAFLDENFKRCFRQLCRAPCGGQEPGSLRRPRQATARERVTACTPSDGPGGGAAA
UniProt P34975: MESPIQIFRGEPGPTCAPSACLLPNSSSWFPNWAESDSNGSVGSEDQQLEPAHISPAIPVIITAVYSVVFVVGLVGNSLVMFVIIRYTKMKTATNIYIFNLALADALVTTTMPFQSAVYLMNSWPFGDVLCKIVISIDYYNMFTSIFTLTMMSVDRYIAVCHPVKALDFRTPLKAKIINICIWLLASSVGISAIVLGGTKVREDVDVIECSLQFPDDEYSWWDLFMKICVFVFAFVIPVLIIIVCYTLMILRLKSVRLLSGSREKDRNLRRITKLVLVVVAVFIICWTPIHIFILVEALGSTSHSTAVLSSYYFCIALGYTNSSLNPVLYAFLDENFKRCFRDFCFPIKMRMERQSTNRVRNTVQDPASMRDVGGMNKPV
UniProt P33535, whole entry, looked up: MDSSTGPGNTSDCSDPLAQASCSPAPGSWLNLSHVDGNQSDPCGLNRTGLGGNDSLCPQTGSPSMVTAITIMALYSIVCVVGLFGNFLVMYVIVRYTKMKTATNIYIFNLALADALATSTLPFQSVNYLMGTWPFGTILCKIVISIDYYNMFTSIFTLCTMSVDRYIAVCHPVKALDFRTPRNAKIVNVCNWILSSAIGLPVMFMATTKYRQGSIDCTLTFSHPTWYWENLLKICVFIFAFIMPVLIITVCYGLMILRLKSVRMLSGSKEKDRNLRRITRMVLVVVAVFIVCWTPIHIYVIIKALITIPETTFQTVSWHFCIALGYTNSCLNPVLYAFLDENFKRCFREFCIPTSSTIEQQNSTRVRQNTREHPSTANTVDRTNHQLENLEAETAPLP

The assay concerns the target Opioid receptor (Rattus norvegicus, UniProt P33533+P34975+P33535). Description: Compound was evaluated for the binding affinity towards opioid receptor from rat whole brain using [3H]etorpine (33.2 Ci/mmol,0.2nanoM)as radioligand.
The term Ki denotes the dissociation constant of the complex between target and ligand, obtained from inhibition or displacement. Lower therefore signals higher affinity. Regarding `COC(=O)c1cc2c3c(ccc2[nH]1)OCC(CNCCCc1ccccc1)O3` (stereo not drawn), the Ki is 765 nM.

As for `CCOC(=O)C1CCN(CC2COc3ccc4[nH]c(C(=O)OC)cc4c3O2)CC1` (stereo not drawn), the Ki was determined as 2420 nM.

`O=C(NCCCc1ccccc1)c1cc2c3c(ccc2[nH]1)OCC(CNCCCc1ccccc1)O3` (stereo not drawn) gave a Ki of 530 nM.
